The record followed here is paper PMC9780223.

pKd: −log10 of the molar value.

This assay deals with purified recombinant PAPP-A free of STC2 (apo PAPP-A) (human) (UniProt Q13219). Nature of the assay: MST. To be noted: natural protein.

“recombinant STC1 (stanniocalcin-1) (from UniProt P52823 34-247)”: the negative logarithm of the Kd (pKd) (as a rule, the Kd on a negative log10 scale, so that one unit is a factor of ten) is 6.48.
